Measured values from US20230017712A1, “SUSTAINED RELEASE DRUG DELIVERY DEVICE” (OAK CREST INSTITUTE OF SCIENCE, priority 2019, published 2023).

[1] = BSA 30% w/w paste with monoolein

Substance: bovine serum albumin [BSA]
- time to release BSA payload (50% w/w BSA with D-(+)-trehalose 45% and L-histidine hydrochloride 5%): ≤ 2 days
- release from the implants over 28 d (100% BSA powder, ePTFE 0.84 g cm^−3): did not appreciably release
- release profile [1]: released linearly from the implant over 8 d
- slope (release rate), simple linear regression [1]: 1.7 mg/day
